Compound activity from PubChem BioAssay.
MITF act: activators of MITF-driven TRPM1 promoter reporter, primary screen, cell-based, SK-MEL-5, luciferase, single point. SK-MEL-5 TRPM1-promoter luciferase, 24 h; % of positive control, neutral wells = 0. activation, % at 12.5 µM. 0.75% of 300,000 active;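 active means mean activation of at least 80% with every replicate also reaching 80%; inconclusive means mean reaches 80% but some replicate falls short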
esBAF inh: Bmi1 luciferase reporter increase in mESCs, primary screen, esBAF inhibitor project, mouse ES cells, Bmi1 luciferase knock-in, single point; 24 h; 100% = twice the neutral-well signal; 2% of 350,000 active; reporter increase, % at 12.5 µM; in the data active means activation above about 40%; inconclusive means no clear call, values can overlap the other calls;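 further: a rise in the Bmi1 reporter signal indicates esBAF inhibition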
Wnt bcat act: Wnt/beta-catenin pathway activators, primary screen, cell-based, plate reader, single point. Wnt/beta-catenin reporter cell assay, activator. activation, % at 9.35 µM. 1.2% of 300,000 active; in the data active means activation above about 30%, passing the limit was not always enough; inconclusive means no clear call, values can overlap the other calls
Yeast UUG start: alters start codon recognition fidelity in yeast. 350,000 tested, 0.13% active. activity score, % at 18.7 µM. S. cerevisiae UUG-firefly luciferase reporter, luminescence/redox ratio;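 active = replicate mean at a twofold rise or more, about +100% in these data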;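 also: firefly luciferase made from a UUG start codon reports start codon fidelity; reporter light over untreated wells divided by growth signal over untreated wells; some hits fall short of that in this replicate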
PglD DTNB: C. jejuni PglD acetyltransferase inhibitors, primary screen, biochemical, DTNB colorimetric, single point | AID 602405, 2012 | 0.098% of 360,000 active | purified PglD enzyme, DTNB colorimetric CoA detection | UDP-N-acetylbacillosamine N-acetyltransferase PglD (Campylobacter jejuni) | inhibition, % at 12.5 µM; in the data active means inhibition above about 16%, passing the limit was not always enough; inconclusive means no clear call, values can overlap the other calls
miR122 inh: miR-122 Renilla sensor signal increase in Huh7, primary screen, miR-122 inhibitor project, cell-based, single point, plate reader; AID 602342, 2012; Huh7 miR-122 Renilla luciferase sensor, 48 h; neutral wells = 0, positive control = 100; activation (reporter increase), % at 12.5 µM; 0.3% of 340,000 active;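 active means mean replicate activation score at least 90 and every replicate individually at or above 90; inconclusive means only one of the two criteria met; inactive means neither criterion met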;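 further: higher luciferase means less miR-122 activity so hits act as miR-122 inhibitors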
Large screens that a line does not name were inactive. Only some compounds are listed: those with a hit (about 2.8% of all), similar ones and a draw of the others.

CC(C)(C)c1cc(NC(=O)c2cccs2)no1	Wnt bcat act 31 (no result: miR122 inh)
CCn1c(CCNC(=O)c2cccs2)nnc1SCC(=O)Nc1nc(-c2ccccc2)cs1	esBAF inh 44 (no result: MITF act, Wnt bcat act)
C[C@H]1CN([C@@H](C)CO)S(=O)(=O)c2ccc(C#Cc3ccccc3)cc2O[C@H]1CN(C)C	none (no result: MITF act, Wnt bcat act)
COc1ccc(NC(=O)N(C)C[C@@H]2OCCCC[C@H](C)Oc3ccc(NC(=O)c4ccccc4)cc3C(=O)N([C@@H](C)CO)C[C@@H]2C)cc1	none (no result: MITF act, Wnt bcat act)
O=C(Nc1nc(-c2ccccc2)cs1)c1cccs1	esBAF inh 62 (no result: Wnt bcat act)
O=C(Nc1nc(-c2ccc(Cl)s2)cs1)c1cccs1	esBAF inh 69 (no result: Wnt bcat act)
O=C(Nc1nc(-c2ccc(Cl)s2)cs1)c1ccco1	none (no result: esBAF inh, Yeast UUG start, PglD DTNB, miR122 inh)
COc1ccc(-c2ccc3c(c2)O[C@@H](CN(C)Cc2cccnc2)[C@H](C)CN([C@@H](C)CO)S3(=O)=O)cc1	none (no result: MITF act, Wnt bcat act, miR122 inh)
Cc1ccc(N/C=C/c2onc(C)c2[N+](=O)[O-])cc1	MITF act 113, Wnt bcat act 40
Cc1ccc(C2=CSC3=NNC4(CCCCC4)NN23)cc1	esBAF inh 66
Cc1cccc2cc(/C=N/Nc3ccc(C(=O)O)cc3)c(Cl)nc12	MITF act 153, Wnt bcat act 38 (no result: esBAF inh, Yeast UUG start, PglD DTNB, miR122 inh)
Cc1cccc2cc(/C=N/NC(=O)c3ccncc3)c(Cl)nc12	none (no result: MITF act, esBAF inh, miR122 inh)
Clc1nc2ccccc2cc1/C=N/Nc1nc2ccccc2[nH]1	Wnt bcat act 63 (no result: esBAF inh, Yeast UUG start, PglD DTNB, miR122 inh)
O=C(O)c1ccc(N/N=C/c2cc3ccccc3nc2Cl)cc1	MITF act 88 (no result: esBAF inh, Yeast UUG start, PglD DTNB, miR122 inh)
C[C@@H]1CN([C@@H](C)CO)C(=O)c2cc(NC(=O)NC3CCCCC3)ccc2O[C@@H](C)CCCCO[C@@H]1CN(C)C(=O)c1ccccc1	none (no result: MITF act, Wnt bcat act)
COc1cccc(S(=O)(=O)N[C@@H]2CC[C@@H](CCn3cc(-c4ccc(F)cc4)nn3)O[C@H]2CO)c1	none (no result: MITF act, Wnt bcat act, miR122 inh)
O=[N+]([O-])c1ccccc1OCc1nc(-c2cccs2)no1	MITF act 119 (no result: esBAF inh, Yeast UUG start, PglD DTNB, miR122 inh)
O=[N+]([O-])c1ccc(F)cc1OCc1nc(-c2cccs2)no1	MITF act inconclusive (no result: esBAF inh, Yeast UUG start, PglD DTNB, miR122 inh)
Cc1ccc(S(=O)(=O)Nc2ccc3c(c2)CC(=O)N([C@@H](C)CO)C[C@@H](C)[C@H](CN(C)C)O3)cc1	none (no result: MITF act, Wnt bcat act)
Cc1cc(/C=C(/C#N)c2cccc(F)c2)c(C)n1-c1cccnc1	MITF act 88 (no result: miR122 inh)
CCCN1CCC(Oc2cccc(C(=O)NCCc3ccccc3)c2)CC1	esBAF inh 51
O=C(NCCc1ccccn1)c1ccc(OC2CCN(CCc3ccccc3)CC2)cc1	MITF act 80, Wnt bcat act inconclusive (no result: miR122 inh)
COCCNC(=O)c1cccc(OC2CCN(Cc3cccc(C(C)=O)c3)CC2)c1	none (no result: MITF act, miR122 inh)
O=C(O)c1cc(N/N=C/c2ccc(-c3ccccc3)cc2)ccc1Cl	esBAF inh inconclusive, Wnt bcat act 48
O=C(O)c1ccc(N/N=C/c2ccc(-c3ccccc3)cc2)cc1	MITF act 92 (no result: esBAF inh, Yeast UUG start, PglD DTNB, miR122 inh)
O=C(O)c1ccc(/C=N/Nc2cccc(C(F)(F)F)c2)cc1	MITF act 111, esBAF inh 88
CN1CCN(C(=O)C[C@@H]2C=C[C@H](NS(=O)(=O)c3cccc(F)c3)[C@H](CO)O2)CC1	none (no result: MITF act, Wnt bcat act, Yeast UUG start)
CC(=O)c1ccc(NS(=O)(=O)c2c(C)cc(C)cc2C)cc1	miR122 inh 152 (no result: esBAF inh, Yeast UUG start, PglD DTNB)
Cc1cc(C)c(S(=O)(=O)Nc2ccc(C(N)=O)cc2)c(C)c1	none
CCOc1ccc(/C=N/NC(=O)c2ccccc2O)cc1CN1CC2CC(C1)c1cccc(=O)n1C2 (stereo not drawn)	esBAF inh 57
CN1C(=O)C2(N=c3ccccc3=N2)c2ccccc21	esBAF inh 41 (no result: Yeast UUG start, PglD DTNB)
O=C(NCC(c1cccs1)N1CCOCC1)c1cc(=O)[nH]c2ccccc12 (stereo not drawn)	none
O=C(NCC(c1ccco1)N1CCCC1)c1cc(=O)[nH]c2ccccc12 (stereo not drawn)	Wnt bcat act 58 (no result: Yeast UUG start, PglD DTNB, miR122 inh)
CC1CCCN(C(=O)Cn2nnc(-c3cccnc3)n2)C1 (stereo not drawn)	miR122 inh 91 (no result: MITF act)
CC1CCCN(C(=O)Cn2nnc(-c3ccc(F)cc3)n2)C1 (stereo not drawn)	none (no result: Yeast UUG start, PglD DTNB)
CC(C)(C)n1ncc2c(=O)n(CC(=O)NC3CCCCC3)cnc21	esBAF inh 44 (no result: Wnt bcat act, miR122 inh)
Cc1ccc(C(=O)Cn2cnc3ccccc3c2=O)cc1	MITF act 89, esBAF inh 56
CC(C)(C)n1ncc2c(=O)n(CC(=O)OCc3ccccc3)cnc21	none (no result: Wnt bcat act)
O=C(Cn1cnc2ccccc2c1=O)c1ccccc1	none (no result: MITF act, Wnt bcat act)
CC(C)(C)n1ncc2c(=O)n(CC(=O)c3ccccc3)cnc21	MITF act 96 (no result: Wnt bcat act)
C[C@H]1CN([C@@H](C)CO)C(=O)Cc2cc(NS(=O)(=O)c3ccc(Cl)cc3)ccc2O[C@H]1CN(C)Cc1ccncc1	none (no result: MITF act, Wnt bcat act)
Cc1ccccc1-c1cnc2c(c1)C(=O)N([C@@H](C)CO)C[C@@H](C)[C@H](CN(C)Cc1ccncc1)O2	none (no result: MITF act, Wnt bcat act)
C[C@H](NC(=O)C[C@H]1C=C[C@@H](NC(=O)Cc2ccccn2)[C@H](CO)O1)c1ccccc1	none (no result: MITF act, Wnt bcat act, Yeast UUG start, miR122 inh)
Cc1ccc(NC(=O)CN(C)C(=O)CCOc2cccc(C)c2)cc1	Wnt bcat act 31 (no result: esBAF inh, Yeast UUG start, PglD DTNB, miR122 inh)
Cc1ccc(OCCCC(=O)N(C)CC(=O)Nc2c(C)cccc2C)cc1	none (no result: MITF act)
Cc1cccc(OCCCC(=O)Nc2ccc(S(N)(=O)=O)cc2)c1	Wnt bcat act 36
CCC(=O)N1CCN(c2nc3ccccc3s2)CC1	none (no result: esBAF inh, Wnt bcat act, Yeast UUG start, PglD DTNB)
O=C(C1CC1)N1CCN(c2nc3ccccc3s2)CC1	MITF act 87, esBAF inh 46, Wnt bcat act 31
Cc1onc(-c2ccccc2Cl)c1C(=O)N1CCN(c2nc3ccccc3s2)CC1	Wnt bcat act 44
Cc1onc(-c2ccccc2Cl)c1C(=O)N1CCCCC1	none (no result: Yeast UUG start, PglD DTNB)
CO[C@@H](CN(C)C(=O)c1ccccc1F)[C@@H](C)CN([C@H](C)CO)S(=O)(=O)c1ccccc1	none (no result: MITF act, Wnt bcat act, Yeast UUG start, miR122 inh)
Cc1ccc(OCC(=O)N2CCN(C(=O)Cc3ccccc3)CC2)cc1	none (no result: Wnt bcat act, miR122 inh)
O=C(COc1ccc(-c2ccccc2)cc1)N1CCN(S(=O)(=O)Cc2ccccc2)CC1	miR122 inh 99
C[C@@H]1CN([C@@H](C)CO)S(=O)(=O)c2ccc(-c3ccncc3)cc2O[C@@H]1CN(C)C(=O)CN(C)C	none (no result: MITF act, Wnt bcat act)
Cc1cc(NC(=O)c2cc3cccc([N+](=O)[O-])c3[nH]2)ccc1F	esBAF inh 84, Wnt bcat act 41 (no result: miR122 inh)
Cc1ccsc1C(=O)NCC(C)(C)N1CCOCC1	none
Cc1ccc(OCc2cc(C(=O)NCC3COCCO3)no2)cc1C (stereo not drawn)	none (no result: esBAF inh)
CCN1CCCC1CNC(=O)c1cc(COc2ccc(C)c(C)c2)on1 (stereo not drawn)	esBAF inh 45
